Target: TGFβR1 (Homo sapiens (Human), UniProt P36897)
Test: TGFβR1 kinase inhibition assay (ADP-Glo Kinase Assay)
Settings: read-out: TGFβR1 IC50; 40 nM TGFβR1 in 2x enzyme mix, 5.4 μM ATP in 2x substrate mix, 120 min RT

The chains behind the UniProt entries cited, without tags or fusion partners. Residues count along the entry.
UniProt P36897, 34-503 limits assumed: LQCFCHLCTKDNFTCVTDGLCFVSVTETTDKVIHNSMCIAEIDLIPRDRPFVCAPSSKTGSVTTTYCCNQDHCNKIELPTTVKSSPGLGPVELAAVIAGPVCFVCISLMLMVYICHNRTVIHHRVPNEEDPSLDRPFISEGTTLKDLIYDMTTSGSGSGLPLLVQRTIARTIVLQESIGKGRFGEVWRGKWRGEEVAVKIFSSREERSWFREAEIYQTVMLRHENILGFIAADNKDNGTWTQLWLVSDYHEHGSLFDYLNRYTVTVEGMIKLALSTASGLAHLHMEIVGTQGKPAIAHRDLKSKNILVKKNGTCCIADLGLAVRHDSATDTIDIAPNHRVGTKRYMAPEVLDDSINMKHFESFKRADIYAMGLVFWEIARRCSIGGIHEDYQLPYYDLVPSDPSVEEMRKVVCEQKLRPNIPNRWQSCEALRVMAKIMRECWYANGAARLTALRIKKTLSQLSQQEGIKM

CC(C)(O)c1cc(Nc2cc(Oc3cn(C4CC4)nc3CNc3ccccc3F)ccn2)ccn1
IC50: 51 nM

Reference: patent US11691981B2, “Heterocyclic compounds, preparation methods therefor, and methods of uses thereof” (INVENTISBIO CO., LTD., priority 2019, dated 2023)
